Assay results: patent US11419951B2, “Peptide-based cancer imaging agents” (Ohio State Innovation Foundation, priority 2017, dated 2022)
No end group written: not given here.

Test system: Cal 27 cells
Assay: Confocal microscopy / FACS of live unfixed Cal 27 cells (internalization and mechanism)
Conditions: 100 μM for 1.5 h before 10 μM 4Iphf-HN18-Cy5

## (4Iph)(f)LPNSNHIKQGL (not fully specified (N-terminus)) [Compound 4Iphf-HN18]
  blocking of 4Iphf-HN18-Cy5 internalization by unlabeled peptide: stopped the internalization
